{
  "source": "ChEMBL document CHEMBL5058646",
  "about": "(2022)",
  "key": {"[1]": {"molecular_target": "T1, Zinc finger and BTB domain-containing protein 40 (Homo sapiens) (UniProt Q9NUA8)", "T1 sequence (whole entry)": "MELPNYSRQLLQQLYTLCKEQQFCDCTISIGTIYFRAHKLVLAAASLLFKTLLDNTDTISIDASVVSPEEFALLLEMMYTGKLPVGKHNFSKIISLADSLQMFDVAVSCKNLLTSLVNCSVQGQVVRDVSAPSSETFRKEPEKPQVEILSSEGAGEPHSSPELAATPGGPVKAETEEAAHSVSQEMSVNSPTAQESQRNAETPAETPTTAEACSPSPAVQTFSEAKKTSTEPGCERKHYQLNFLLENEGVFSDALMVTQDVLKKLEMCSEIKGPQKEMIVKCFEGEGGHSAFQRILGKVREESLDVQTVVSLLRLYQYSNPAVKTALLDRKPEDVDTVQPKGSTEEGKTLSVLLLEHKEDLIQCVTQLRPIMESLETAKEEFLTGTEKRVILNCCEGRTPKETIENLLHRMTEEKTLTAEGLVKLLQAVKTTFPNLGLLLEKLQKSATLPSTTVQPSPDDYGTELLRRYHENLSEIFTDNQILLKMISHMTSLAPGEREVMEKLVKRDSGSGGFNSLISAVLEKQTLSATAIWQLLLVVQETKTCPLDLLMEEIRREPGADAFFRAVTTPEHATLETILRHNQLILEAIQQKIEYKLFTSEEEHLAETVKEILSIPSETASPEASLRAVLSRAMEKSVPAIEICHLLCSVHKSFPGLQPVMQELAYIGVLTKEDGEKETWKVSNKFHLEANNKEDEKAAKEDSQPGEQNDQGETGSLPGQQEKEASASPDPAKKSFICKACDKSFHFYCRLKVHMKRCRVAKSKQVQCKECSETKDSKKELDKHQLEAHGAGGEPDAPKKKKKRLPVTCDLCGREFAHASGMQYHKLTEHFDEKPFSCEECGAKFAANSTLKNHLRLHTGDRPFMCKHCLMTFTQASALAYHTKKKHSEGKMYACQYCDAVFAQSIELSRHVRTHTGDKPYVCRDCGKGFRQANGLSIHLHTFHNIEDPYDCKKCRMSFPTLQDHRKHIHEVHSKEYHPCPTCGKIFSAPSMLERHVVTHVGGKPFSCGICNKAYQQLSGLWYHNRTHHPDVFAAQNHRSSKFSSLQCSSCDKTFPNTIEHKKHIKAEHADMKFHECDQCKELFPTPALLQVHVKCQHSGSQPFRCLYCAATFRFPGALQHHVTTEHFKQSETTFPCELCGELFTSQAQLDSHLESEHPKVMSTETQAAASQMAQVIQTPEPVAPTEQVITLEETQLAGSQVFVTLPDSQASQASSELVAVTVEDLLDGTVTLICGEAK", "settings": "OCI-Ly1"}, "[2]": {"molecular_target": "T2, Zinc finger and BTB domain-containing protein 11 (Homo sapiens) (UniProt O95625)", "T2 sequence (whole entry)": "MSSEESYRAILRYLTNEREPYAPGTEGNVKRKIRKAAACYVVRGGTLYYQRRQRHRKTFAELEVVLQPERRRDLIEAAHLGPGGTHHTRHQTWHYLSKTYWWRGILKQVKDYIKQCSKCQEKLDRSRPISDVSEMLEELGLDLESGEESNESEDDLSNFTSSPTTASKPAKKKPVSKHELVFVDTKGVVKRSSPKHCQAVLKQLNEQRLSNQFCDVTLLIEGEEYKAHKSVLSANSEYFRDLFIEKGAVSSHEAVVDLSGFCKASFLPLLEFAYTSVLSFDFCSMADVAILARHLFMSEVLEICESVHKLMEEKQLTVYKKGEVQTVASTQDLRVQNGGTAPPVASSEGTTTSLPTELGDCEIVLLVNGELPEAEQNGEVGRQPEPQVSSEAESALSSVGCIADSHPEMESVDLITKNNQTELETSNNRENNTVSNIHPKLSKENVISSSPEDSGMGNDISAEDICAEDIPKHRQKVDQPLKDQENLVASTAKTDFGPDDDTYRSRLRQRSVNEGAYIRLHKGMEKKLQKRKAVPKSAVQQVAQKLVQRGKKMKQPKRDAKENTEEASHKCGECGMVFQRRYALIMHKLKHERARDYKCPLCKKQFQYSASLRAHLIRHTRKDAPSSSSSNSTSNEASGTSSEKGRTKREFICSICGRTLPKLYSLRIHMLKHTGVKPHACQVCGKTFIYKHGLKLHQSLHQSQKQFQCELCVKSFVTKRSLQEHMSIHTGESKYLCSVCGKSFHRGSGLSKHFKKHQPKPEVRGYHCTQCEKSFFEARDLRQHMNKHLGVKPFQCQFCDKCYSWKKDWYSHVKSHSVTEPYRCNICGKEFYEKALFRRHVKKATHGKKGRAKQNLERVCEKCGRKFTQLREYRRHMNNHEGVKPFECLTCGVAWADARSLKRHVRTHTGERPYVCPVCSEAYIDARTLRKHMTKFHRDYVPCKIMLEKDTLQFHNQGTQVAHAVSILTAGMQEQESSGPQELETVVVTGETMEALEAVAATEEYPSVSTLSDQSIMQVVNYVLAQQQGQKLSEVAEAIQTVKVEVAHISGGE", "settings": "SUD4"}, "[3]": {"molecular_target": "B-cell lymphoma 6 protein (Homo sapiens, UniProt P41182)", "settings": "SUD4"}, "[4]": {"molecular_target": "T3, Zinc finger and BTB domain-containing protein 24 (Homo sapiens) (UniProt O43167)", "T3 sequence (whole entry)": "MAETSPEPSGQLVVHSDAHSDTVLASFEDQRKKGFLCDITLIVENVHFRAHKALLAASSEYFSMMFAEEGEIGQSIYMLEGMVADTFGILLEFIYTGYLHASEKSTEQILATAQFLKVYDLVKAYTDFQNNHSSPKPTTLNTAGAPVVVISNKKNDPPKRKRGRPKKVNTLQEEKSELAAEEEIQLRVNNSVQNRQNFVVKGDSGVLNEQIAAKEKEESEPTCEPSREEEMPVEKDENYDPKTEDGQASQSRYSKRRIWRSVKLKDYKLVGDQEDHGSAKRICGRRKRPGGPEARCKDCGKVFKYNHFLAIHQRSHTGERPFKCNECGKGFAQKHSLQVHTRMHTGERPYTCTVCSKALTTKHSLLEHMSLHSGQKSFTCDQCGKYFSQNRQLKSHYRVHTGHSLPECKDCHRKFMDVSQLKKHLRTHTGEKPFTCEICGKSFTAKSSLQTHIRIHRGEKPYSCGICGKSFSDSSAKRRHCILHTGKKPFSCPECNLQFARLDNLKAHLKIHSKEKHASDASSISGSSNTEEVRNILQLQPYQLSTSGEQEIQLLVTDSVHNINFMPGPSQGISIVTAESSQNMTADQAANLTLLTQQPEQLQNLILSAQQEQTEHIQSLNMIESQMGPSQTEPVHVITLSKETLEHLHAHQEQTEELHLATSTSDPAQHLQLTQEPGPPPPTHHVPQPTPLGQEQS", "settings": "SUD4"}},
  "data": [
    {"compound": "C[C@@H]1CN(c2ncc(Cl)c(Nc3ccc4c(c3)n(CCC(C)(C)O)c(=O)n4C)n2)C[C@H](C)C1(F)F", "values": [
      {"measurement": "Normalized abundances for DMSO", "setting": "[1]", "result": 94.7},
      {"measurement": "Normalized abundances for compound", "setting": "[1]", "result": 82.8},
      {"measurement": "Normalized abundances for DMSO", "setting": "[2]", "result": 2810},
      {"measurement": "Normalized abundances for compound", "setting": "[2]", "result": 2720},
      {"measurement": "Normalized abundances for DMSO", "setting": "[3]", "result": 12100},
      {"measurement": "Normalized abundances for compound", "setting": "[3]", "result": 5260},
      {"measurement": "Normalized abundances for DMSO", "setting": "[4]", "result": 291},
      {"measurement": "Normalized abundances for compound", "setting": "[4]", "result": 291}
    ]}
  ]
}
